Source: PubChem
Hits are enriched below; roughly 2.1% of the tested compounds scored in any of these assays.
PDI turbidity = inhibitors of human protein disulfide isomerase; P07237; PDI insulin aggregation turbidity, A650, 90 min; inhibition, % at 10 µM; 0.052% of 350,000 active;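 active = mean inhibition across replicates of 30% or more, whatever share of single replicates reach that level; inconclusive = mean inhibition below 30% while every single replicate reaches 30%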
Rev-erbA mod = modulators of human Rev-erb alpha DNA binding; P20393; activity, % at 10 µM; 0.79% of 370,000 active; Rev-erbα–FITC-DNA binding, fluorescence polarization, 90 min;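 active = activity above about 14%, limit read from the data; passing the limit was not always enough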
GSIS activator = GLuc luminescence reporter in INS-1E cells, primary screen for activators of glucose-dependent secretion of insulin. INS-1E GLuc reporter insulin secretion, 2-3 h. activation, % at 16.6 µM. 0.61% of 370,000 active;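 active = lowest replicate activation of at least 40%, so every replicate reaches that level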
ERp5 inh = blocks human ERp5 reductase activity on insulin | Q15084 | ERp5 insulin aggregation, absorbance 650 nm, 90 min | inhibition, % at 9.99 µM | 0.05% of 350,000 active | AID 651711;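 active = mean replicate inhibition above about 25%, with every replicate also reaching it, limit read from the data, passing the limit was not always enough; inconclusive = only one of those two criteria met; inactive = neither criterion met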
SMARCA2 activ = increases SMARCA2 function in MMTV reporter cells. MG213 cells, MMTV-luciferase reporter, dexamethasone, overnight. activation, % at 9.1 µM. 1% of 370,000 active. AID 652017; in the data active = activation above about 7.8%
UUG fidelity = alters start codon recognition fidelity in yeast. S. cerevisiae UUG-firefly luciferase reporter, luminescence/redox ratio. activity score, % at 18.7 µM. 0.13% of 350,000 active. AID 602363;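 active = replicate mean at a twofold rise or more, about +100% in these data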;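 also: firefly luciferase made from a UUG start codon reports start codon fidelity; reporter light over untreated wells divided by growth signal over untreated wells; some hits fall short of that in this replicate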
Hits are given with their value; 0 = inactive; ? = inconclusive; - = not tested or not shown.

SMILES	PDI turbidity	Rev-erbA mod	GSIS activator	ERp5 inh	SMARCA2 activ	UUG fidelity
COc1ccc(Cl)cc1C(=O)O/N=C(\N)c1ccccn1	0	0	0	0	7.8	0
O=C(NCc1ccccc1)C(c1ccccc1F)n1c(=O)c(-c2ccccc2)nc2ccccc21 (stereo not drawn)	-	0	0	0	0	-
O=C(NCc1ccccc1)C(c1ccncc1)n1c(=O)c(-c2ccccc2)nc2ccccc21 (stereo not drawn)	-	0	45	0	0	-
CC(C)C(=O)Nc1ccc2c(c1)C(=O)N(C)[C@@H]1CC[C@H](CC(=O)O)O[C@@H]1CO2	-	-	0	0	-	0
CC(C)c1ccc(NC2CCCN(C(=O)c3cccnc3)C2)cc1 (stereo not drawn)	0	0	76	0	0	0
O=C(Nc1ccc2oc(-c3cccnc3)nc2c1)c1ccc2c(c1)OCCO2	0	0	43	-	0	-
O=C(Nc1ccc2oc(-c3ccccc3)nc2c1)c1ccc2c(c1)OCCO2	0	0	-	-	0	0
CO[C@@H](CN(C)C(=O)c1ccccc1F)[C@@H](C)CN([C@H](C)CO)S(=O)(=O)c1ccc(Cl)cc1	-	-	0	0	-	-
Cc1ccc(-c2nnc3sc(-c4ccncc4)nn23)cc1	0	0	67	-	0	0
COc1cc(NC(=O)c2onc(C)c2Cl)c(OC)cc1Cl	0	0	0	0	7.9	0
CO[C@@H]1CN(C)C(=O)c2cc(NC(=O)NC(C)C)ccc2OC[C@H](C)N(C)C[C@H]1C	-	-	0	0	-	0
CCOc1cc(/C=C(\CC(=O)O)c2nc3ccccc3s2)ccc1OC	0	0	51	0	0	-
NC[C@H]1O[C@H](O[C@H]2C(O[C@@H]3O[C@H](CO)[C@@H](O)[C@H]3O)[C@@H](O)[C@H](N)C[C@@H]2N)[C@H](N)[C@@H](O)[C@@H]1O (stereo partly drawn)	-	0	-	-	-	-
CC(C)NC(=O)N(C)C[C@H]1Oc2c(NC(=O)Nc3ccc(C(F)(F)F)cc3)cccc2C(=O)N([C@@H](C)CO)C[C@@H]1C	-	-	0	0	-	0
Cc1cc(C)c(C)c(S(=O)(=O)N2CCN(CC(=O)Nc3ccc([N+](=O)[O-])cc3)CC2)c1C	0	0	122	-	0	-
Cc1ccc(S(=O)(=O)N2CCN(CC(=O)Nc3ccc([N+](=O)[O-])cc3)CC2)cc1C	0	0	0	-	0	-
C[C@@H]1CN([C@@H](C)CO)C(=O)c2cc(C#Cc3ccccc3F)cnc2O[C@@H]1CN(C)S(=O)(=O)c1ccccc1F	-	-	0	0	-	0
COc1ccc(S(=O)(=O)Nc2ccc3c(c2)C(=O)N([C@H](C)CO)C[C@H](C)[C@@H](CN(C)C(=O)Nc2ccccc2)O3)cc1	0	0	0	0	0	0
COc1ccc(S(=O)(=O)Nc2ccc3c(c2)C(=O)N([C@H](C)CO)C[C@H](C)[C@H](CN(C)C(=O)Nc2ccccc2)O3)cc1	-	-	0	29	-	0
COc1ccc(NC(=O)N(C)C[C@H]2Oc3ccc(NS(=O)(=O)c4ccccc4)cc3C(=O)N([C@@H](C)CO)C[C@@H]2C)cc1	-	-	0	33	-	0
O=C(CN1C(=O)CCC1=O)Nc1cccc2c1C(=O)NC2=O	0	0	41	0	0	-
O=C(Nc1cccc2c1C(=O)NC2=O)c1cccc(N2C(=O)CCC2=O)c1	0	0	0	0	0	-
COCCn1c(C)cc(C(=O)Cn2nc(C(=O)O)c3ccccc3c2=O)c1C	0	0	0	0	0	-
C=CCn1c(C)cc(C(=O)Cn2nc(C(=O)O)c3ccccc3c2=O)c1C	0	0	0	0	7.9	0
CC(C)c1ccc2oc(=O)cc(CN3CCCCC3)c2c1	0	0	44	0	0	0
SMILES	PDI turbidity	Rev-erbA mod	GSIS activator	ERp5 inh	SMARCA2 activ	UUG fidelity
CC(C)N(C(=O)[C@H]1C[C@H](CC(=O)NCc2ccco2)C(=O)N2CCc3c([nH]c4cc(CCC(=O)N(C)C)ccc34)[C@]12C)C(C)C	0	0	0	0	7.9	0
O=C(/C=C/c1ccc(Cl)cc1)NC(=S)Nc1ccc(NC(=O)c2ccco2)cc1	0	0	50	-	0	-
CC(=O)Nc1ccc(NC(=S)NC(=O)/C=C/c2ccc(Cl)cc2)cc1	0	0	0	0	0	-
Cc1ccc2c(c1)c1c3n2CCN(C(=O)CCl)C3CCC1 (stereo not drawn)	59	0	0	0	0	0
O=C(c1ccccc1)N1C[C@@H]2[C@H](c3ccccc31)[C@H](CO)N2Cc1ccccc1F	-	-	0	0	-	0
CC(C)(C)c1ccc(-c2cc(-c3ccccc3O)[nH]n2)cc1	0	0	68	0	0	0
CN1C(=O)c2cc(NC(=O)C3CCOCC3)ccc2OC[C@H]2O[C@@H](CC(=O)NCc3ccc4c(c3)OCO4)CC[C@H]21	-	-	0	0	-	-
CS(=O)(=O)c1ccc(C(=O)OCc2nnc(-c3ccc(Cl)cc3)o2)cc1[N+](=O)[O-]	89	-	-	-	-	0
N=c1c2c(ncn1Cc1ccco1)Oc1cc(O)ccc1C2c1ccccc1 (stereo not drawn)	0	0	0	0	0	0
COc1ccc(C2c3ccc(O)cc3Oc3ncn(CCCO)c(=N)c32)cc1 (stereo not drawn)	44	0	0	0	0	0
CCCCCCCCn1ccc(=N)cc1	0	0	0	0	0	0
CCCCCCCCCCCCCCCCn1cc[n+](C)c1	?	0	186	0	0	-
CCCOc1ccc(/C=N/NC(=O)C(=O)Nc2ccccn2)cc1	0	0	52	-	0	0
COc1cc(/C=N/NC(=O)C(=O)Nc2ccccn2)ccc1O	0	0	0	-	0	0
C[C@H](O)[C@@H]1CN2CCc3ccc(-c4ccc5c(c4)OCO5)cc3[C@@H]2C[C@@H]1N(C)C(=O)c1cccc(Cl)c1	-	0	188	0	0	-
C[C@H](O)[C@@H]1CN2CCc3ccc(N4CCOCC4)cc3[C@@H]2C[C@@H]1N(C)C(=O)c1cccc(Cl)c1	-	0	-	-	0	-
NS(=O)(=O)c1ccc(CCNc2ccn3nc(-c4ccc(OCCN5CCOCC5)cc4)cc3n2)cc1	0	0	0	0	0	0
COCCCNc1ccn2nc(-c3ccc(OCCN4CCOCC4)cc3)cc2n1	0	0	-	0	7.9	0
COc1ccc(OC2C(=O)N(Cc3ccc(F)cc3)C2c2cc(OC)c(OC)c(OC)c2)cc1 (stereo not drawn)	0	0	0	-	0	-
COC(=O)c1ccc(C2C(Oc3ccc(OC)cc3)C(=O)N2CCc2ccc(F)cc2)cc1 (stereo not drawn)	0	0	113	-	0	-
Cc1c(-n2cc(C(=O)c3cc(Br)ccc3O)cc(C#N)c2=O)c(=O)n(-c2ccccc2)n1C	35	0	-	-	0	0
C[C@@H]1CN([C@H](C)CO)C(=O)c2cc(NS(C)(=O)=O)ccc2O[C@H]1CN(C)Cc1ccc(C(F)(F)F)cc1	-	-	0	0	-	0
O=C(CCc1nnc(CCCc2ccccc2)o1)NCCc1ccco1	0	0	0	?	7.8	-
O=C(CCc1nnc(CCCc2ccccc2)o1)NCCc1ccccc1	0	0	0	0	0	-
